Binding of CDR-mutated scFvs to a peptide of the spike HR2 region

Target: peptide PDVDLGDISGINAS, taken from heptad repeat 2 (HR2) of SARS-CoV-2 spike.

Each scFv is VL, a (GGGGS)3 linker, VH, as in the parent Ab-91, and differs from it in the CDRs of the heavy chain only.
VL: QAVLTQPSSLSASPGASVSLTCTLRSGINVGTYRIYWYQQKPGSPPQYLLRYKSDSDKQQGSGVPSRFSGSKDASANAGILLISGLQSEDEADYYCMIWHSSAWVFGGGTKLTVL
VH: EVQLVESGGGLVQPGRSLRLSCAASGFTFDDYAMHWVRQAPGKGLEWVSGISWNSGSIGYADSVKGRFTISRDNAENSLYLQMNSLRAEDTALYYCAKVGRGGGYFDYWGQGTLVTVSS

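Library AAYL51 holds single substitutions and randomly drawn double and triple substitutions in the CDRs. The scFvs were displayed on barcoded MATa yeast, the peptide on MATalpha yeast. Mating (16 h, 30 °C) was followed by selection of diploids and sequencing of their barcodes. Scores were corrected for input abundance and mapped to Kd with protein pairs of known affinity run in the same pool. The assay was run in three technical replicates.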

Each variant is given by its three heavy chain CDRs, as the data file delimits them; those of the parent are GFTFDDYAMH, GISWNSGSIGYADSVK, VGRGGGYFDY. Values are log10 of the apparent Kd in nM; lower means stronger binding. The mean shown is taken over the replicates in which the pair was detected. Where no diploid with the target was found in any replicate, the entry reads "not detected": below detection, most likely a poor binder, though not proof of it.

CDR-H1,CDR-H2,CDR-H3,mean log10 Kd (nM),detected,empty controls
GFTFDDYAMH,GISWMSGSIGYASSVK,VGRGGGYFRY,5.40,2 of 3,5 of 9
GFTFDDYAMH,GISWNSGSIREADSVK,EGRGGGYFDY,not detected,0 of 3,0 of 9
GFTFDCYAMH,GISWNSGSIGYADSVR,VGRGGGYFMY,1.51,3 of 3,2 of 9
GFTFDVYAMY,GISWNSGSIGYADSVK,VGRGGGYMDY,not detected,0 of 3,1 of 9
GFTFDDYAMH,GISWLSGSIGYADSVM,VGRGAGYFDY,not detected,0 of 3,0 of 9
GETDDDYAMH,GISWNSGSIGYADIVK,VGRGGGYFDY,not detected,0 of 3,4 of 9
DFTFDDYAMH,GISWNSGSIGYADSVK,VGAGGGYFDY,4.75,1 of 3,0 of 9
TFTFDDYAMH,GISWNSGSIGYADSSK,VGRKGGYFDY,not detected,0 of 3,0 of 9
GFTFDDYAMH,GGSWNSGSIGYTDSVK,TGRGGGYFDY,not detected,0 of 3,0 of 9
GFTFDDYAMH,DISWNRGSIGYADSVK,RGRGGGYFDY,3.93,1 of 3,2 of 9
GFTFDDYAMH,GIPPNSGEIGYADSVK,VGRGGGYFDY,5.38,1 of 3,1 of 9
EFTFDDYAFH,GISWNSGSIGYADSVK,VGRGGGYFNY,4.59,1 of 3,2 of 9
GLTFYDYAMH,GISWNSGSIGYADSVK,VGRLGGYFDY,4.68,2 of 3,2 of 9
GFTFDDYAMH,GISWNSGSIGYADSVK,CGRGGGNFDY,not detected,0 of 3,0 of 9
GFTFDDYAMH,GISWNSGSIGYADSDK,VLRGGGYFDY,not detected,0 of 3,1 of 9
GFTFDDYAMH,GISWVSGSIGYADSVK,VPRGGVYFDY,not detected,0 of 3,1 of 9
GFTFDDYAMH,GISWNSGSIGYADYVK,PGRGGAYFDY,not detected,0 of 3,1 of 9
QFTFIDYAMH,GISWNSGSIGYADSVK,VERGGGYFDY,not detected,0 of 3,2 of 9
GFTFDDYAMH,GISWNSRSIKYADSVK,VGRGGGYFGY,4.57,1 of 3,0 of 9
GFTFDDYAMH,GISWNSGSFGYADSVK,VGRGGGYQDY,4.59,1 of 3,3 of 9
GFTFDDYAYH,GISWNSGSIGYADSVK,YGRGGGGFDY,not detected,0 of 3,1 of 9
GFTFFDYAMH,GISWHSGSIGYADSVK,VGNGGGYFDY,4.78,3 of 3,6 of 9
GFTFDDYAMH,GISWNSGSIGYADSPK,GGRGGGYFKY,3.76,1 of 3,0 of 9
GFTFDDYAMH,GISWNFCSAGYADSVK,VGRGGGYFDY,3.58,1 of 3,0 of 9
GFTSDDYAMH,GIFWNSYSIGYADSVK,VGRGGGYFDY,5.05,2 of 3,5 of 9
GFTKDDYAMH,GISRNSGSIGYADSVK,VGRGGGYFGY,4.60,1 of 3,0 of 9
GFTFDDYAMH,GICWNDGSIGYADSGK,VGRGGGYFDY,4.60,3 of 3,5 of 9
GSTFDDYAMM,GISWNSGSIGYADSVK,VGRGGGYFDY,not detected,0 of 3,0 of 9
GFTFDDYAMH,GLSWNSGFIGYADSVK,VGRGGGYFDW,4.79,2 of 3,1 of 9
VFTFWDYAMH,GISWNSGSIGYADSAK,VGRGGGYFDY,3.34,1 of 3,3 of 9
GRTFDDYAMH,GISWNSSSIGYADSVK,DGRGGGYFDY,not detected,0 of 3,1 of 9
GFTFDDYCMH,WISWNSGSIGYADFVK,VGRGGGYFDY,not detected,0 of 3,0 of 9
GFTFDDYAMH,GISWNSWSIGYADSVK,VCRGGGYFAY,not detected,0 of 3,3 of 9
GFTFDDYAMH,GSSWNSGSPGYADSVK,VLRGGGYFDY,5.51,3 of 3,5 of 9
GFTFDDYAMH,GISWNIGIIGYADSVK,VGRGGGYFDQ,not detected,0 of 3,0 of 9
GFTRDDYAMH,GISWNHGSIGYADSVK,RGRGGGYFDY,4.86,2 of 3,1 of 9
GFTFDDYAMH,GSYWNSGSIGYADSVK,VGRGGGEFDY,not detected,0 of 3,4 of 9
GQTFDDYAMH,GISWNSGSLGYADSVE,VGRGGGYFDY,1.82,3 of 3,4 of 9
GFTFIDYAMH,GISWNSGSIGYADSVK,EGRGLGYFDY,3.99,1 of 3,1 of 9
GFTFGDYAMH,GISWNSGSIGYADSVE,VGRGGGDFDY,not detected,0 of 3,3 of 9
GFTFDNYAMH,GISWNSGSIGYADSHK,VGRGGGYFGY,4.68,1 of 3,2 of 9
GFTFDDYAMH,GISWNSSSIGPADSVK,VGRKGGYFDY,4.52,1 of 3,2 of 9
AFTFDDYAMH,GISWNSGSIPYADSVK,VGRGGGYFWY,4.82,2 of 3,2 of 9
GFTFDDYAMH,HISWNSISIKYADSVK,VGRGGGYFDY,5.52,1 of 3,0 of 9
GFTFDDYPMH,GISWNSGSIGYAWSVK,VGVGGGYFDY,not detected,0 of 3,0 of 9
GFTFDDYAMH,GISWNSGSINYADSVK,WGRGGGYFDY,4.93,1 of 3,2 of 9
GFTFDDYAMH,GISWNSGSIGYADSVK,VGRGVGYADY,not detected,0 of 3,0 of 9
GFTFDDYAMH,GISWNSWSIEYADSVK,VGRGGGYFDY,3.96,2 of 3,1 of 9
GFTFDDYAMH,GISWNSGSIFTADSVK,VGRGCGYFDY,4.03,1 of 3,2 of 9
GFTFDDYAMH,EISWNSGSIGYEDSVK,VGRGGRYFDY,not detected,0 of 3,4 of 9
GGTFDDYAMH,GISWNSGSIGYADSVK,VGRGGGNFWY,3.08,1 of 3,2 of 9
GFTFDDYAMH,GIKWNSGSIGYADSVD,VGRGGVYFDY,5.35,1 of 3,5 of 9
GYTFDDYAMH,GISWNSGSIGYADSMK,VGRGGGYFDN,2.46,3 of 3,3 of 9
GFKFDCYAMH,GISWNSGSIGYADSVK,VGRGWGYFDY,2.19,3 of 3,1 of 9
GFTFDDYAMH,GICWNSGSIYYADSVK,VGRGGGYCDY,not detected,0 of 3,1 of 9
GFTFDDYAMH,GISWNSGSIGYADSVK,VQRGGWYFDY,not detected,0 of 3,0 of 9
GFTFDDYAMH,GISWSSGSIGYADSVK,VGRKGGGFDY,1.74,3 of 3,6 of 9
GLTFDDYAMH,GISWNSGSIGYADSVK,VGNGGGYADY,5.16,3 of 3,2 of 9
GFTFDDYAMH,SFSWNSHSIGYADSVK,VGRGGGYFDY,3.38,1 of 3,0 of 9
GDTFDDHAMH,LISWNSGSIGYADSVK,VGRGGGYFDY,4.14,1 of 3,2 of 9
GFTFMDQAMH,GISWNSGSIGRADSVK,VGRGGGYFDY,not detected,0 of 3,0 of 9
LFTFLDYAMH,AISWNSGSIGYADSVK,VGRGGGYFDY,4.74,1 of 3,4 of 9
GFTFDDYAMH,GISWNSGSIPYADSVK,VGRKGGYFDI,not detected,0 of 3,1 of 9
GFTFDDYAMH,GISWFSGSIGYIDSVK,VGRGGGYFDY,not detected,0 of 3,4 of 9
GFTFDPYYMH,GISWNSGSIGYADSVK,VGRGFGYFDY,4.63,2 of 3,2 of 9
GDTFDDYAKH,GISWNSGSIGYADSVK,VGRGGGMFDY,3.59,2 of 3,0 of 9
GFTFPDYAMH,GISWNSGSIGYADSVK,VGRGGGDFDY,not detected,0 of 3,3 of 9
VFTFDDYFMH,GISWNSGSIGYADDVK,VGRGGGYFDY,4.95,3 of 3,5 of 9
GFTFDDYAAH,GISWNSGRIGYTDSVK,VGRGGGYFDY,not detected,0 of 3,0 of 9
GFTFDDIAMH,GISWNSGSIGYADSCQ,VGRGGGYFDY,3.82,1 of 3,1 of 9
GFTFDDYAMH,GISWNSGSILHADSVK,VGRGRGYFDY,4.65,1 of 3,1 of 9
GWTFRDYAMH,GISWNSGSIKYADSVK,VGRGGGYFDY,not detected,0 of 3,2 of 9
GFTFDDYAMH,GISWSSGNIGYADSVK,VGHGGGYFDY,not detected,0 of 3,1 of 9
GFTFDDYAMH,GISWNSGSIGYADSVF,EGRGGGYFDY,4.86,1 of 3,2 of 9
GFTFDDYARH,GISWNSGSIGYAASVK,SGRGGGYFDY,not detected,0 of 3,0 of 9
GFTFDDYVMH,GISWNSGSIGYADSVK,VGRGGGYYMY,4.14,2 of 3,1 of 9
GFTFDSYAMH,GISHNSGSIGYADSVK,VGRGGGYSDY,5.54,2 of 3,5 of 9

Picked from the list: the 10 lowest averages where every replicate gave a value.

CDR-H1,CDR-H2,CDR-H3,mean log10 Kd (nM),detected,empty controls
GFTFDCYAMH,GISWNSGSIGYADSVR,VGRGGGYFMY,1.51,3 of 3,2 of 9
GFTFDDYAMH,GISWSSGSIGYADSVK,VGRKGGGFDY,1.74,3 of 3,6 of 9
GQTFDDYAMH,GISWNSGSLGYADSVE,VGRGGGYFDY,1.82,3 of 3,4 of 9
GFKFDCYAMH,GISWNSGSIGYADSVK,VGRGWGYFDY,2.19,3 of 3,1 of 9
GYTFDDYAMH,GISWNSGSIGYADSMK,VGRGGGYFDN,2.46,3 of 3,3 of 9
GFTFDDYAMH,GICWNDGSIGYADSGK,VGRGGGYFDY,4.60,3 of 3,5 of 9
GFTFFDYAMH,GISWHSGSIGYADSVK,VGNGGGYFDY,4.78,3 of 3,6 of 9
VFTFDDYFMH,GISWNSGSIGYADDVK,VGRGGGYFDY,4.95,3 of 3,5 of 9
GLTFDDYAMH,GISWNSGSIGYADSVK,VGNGGGYADY,5.16,3 of 3,2 of 9
GFTFDDYAMH,GSSWNSGSPGYADSVK,VLRGGGYFDY,5.51,3 of 3,5 of 9

As a blank, each scFv also met three strains without target: over library AAYL51, 21% of these pairings were detected, typically at 4.54 and seldom below 3.26. For each scFv, signals with the empty controls are counted beside the result.

From the AlphaSeq antibody data of Engelhart et al. 2022 (doi:10.1038/s41597-022-01779-4), copy in the FLAb collection.